Target: T1, Granzyme A (Homo sapiens) (UniProt P12544)
T1 sequence (whole entry): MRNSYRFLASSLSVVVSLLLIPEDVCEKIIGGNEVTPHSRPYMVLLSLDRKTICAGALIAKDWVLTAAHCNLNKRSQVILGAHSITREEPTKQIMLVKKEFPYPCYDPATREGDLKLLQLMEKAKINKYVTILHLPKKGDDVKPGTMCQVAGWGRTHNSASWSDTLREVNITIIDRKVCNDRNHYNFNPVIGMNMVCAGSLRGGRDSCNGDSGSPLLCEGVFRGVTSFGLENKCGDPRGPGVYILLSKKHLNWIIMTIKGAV
Test: Inhibition of human granzyme A
Procedure, shortened: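 Recombinant human and rat granzyme A, incubated with inhibitor (1.0–450 μM) at 25 °C in 0.1 M Hepes, 0.01 M CaCl2, pH 7.5 (7.6% DMSO). Timed aliquots were read for residual activity on Cbz-Arg-SBzl with DTNB at 405 nm. k_obs came from ln vt/vo vs time over 5–10 points and 2–3 half-lives, two k_obs per inhibitor. DMSO controls were run.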

N=C(N)c1ccc(C(NC(=O)OCc2ccccc2)P(=O)(Oc2ccccc2)Oc2ccccc2)cc1 (stereo unspecified) showed a kobs/[I] (second-order inactivation rate constant) of 1180 M⁻¹ s⁻¹.

Source: ChEMBL document CHEMBL1131259, “Synthesis and evaluation of diphenyl phosphonate esters as inhibitors of the trypsin-like granzymes A and K and mast cell tryptase” (J Med Chem, 1998)
